Measurements published in patent publication WO2022068891A1 (dated 2022).

Protein sequences, listed by entry. Tags and fused reporters are not part of them. Residues count along the entry.
UniProt Q15116, 25-167 limits assumed: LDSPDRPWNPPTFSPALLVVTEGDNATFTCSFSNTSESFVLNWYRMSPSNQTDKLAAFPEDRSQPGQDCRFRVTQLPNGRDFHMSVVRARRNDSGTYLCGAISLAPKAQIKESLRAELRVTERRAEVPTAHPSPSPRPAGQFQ

Legend:
[1] = target: Biotinylated PD-1-huIgG1 Fc (Kactus Biosystems) (UniProt Q15116); assay: neutralisation ELISA: PD-L1-huIgG1 Fc coated, antibody titrated against biotinylated PD-1-huIgG1 Fc
[2] = target: PD-1 Protein, Human, Recombinant (His Tag) (Beijing Yiqiao Shenzhou / Sino Biological) (human) (UniProt Q15116); assay: binding ELISA: human PD-1 His tag protein coated at 0.5 ug/ml, antibody in two-fold dilutions from 10 ug/ml

Substance: pembrolizumab huIgG1 antibody
- IC50 [1]: 6.66 µg/mL
- EC50 [2]: 0.0111 µg/mL
